Assay results published in article PMC11855866, “Combining Sulfonylureas with Anticancer Drugs: Evidence of Synergistic Efficacy with Doxorubicin In Vitro and In Vivo” (International Journal of Molecular Sciences, 2025).

Tested on: MCF-7 cells
Experiment: MTT cytotoxicity / synergy assay, 72 h, MCF-7
Type: cell-based, human
Experimental: Stock solutions of the tested compounds were first prepared in DMSO at 200-fold the intended final concentration. […] The cells were treated for 72 h under the same conditions.
Following treatment, 25 μL of MTT solution was added to each well, and the plates were incubated for 2 h at 37 °C. […] IC₅₀ values, indicating the concentration required to reduce cell viability by 50% compared to untreated controls (set as 100% viability), were calculated using GraphPad Prism 9 software (GraphPad Software, San Diego, CA, USA). All data from this preliminary cytotoxic assay were analyzed by ANOVA followed by Tukey’s post hoc test for multiple comparisons, with significance set at p < 0.05. A similar statistical approach was used for the rest of the experimental work presented in this study.

`CCC1=C(C)CN(C(=O)NCCc2ccc(S(=O)(=O)NC(=O)N[C@H]3CC[C@H](C)CC3)cc2)C1=O` [GLIM, Glimepiride] was tested, and the “average combination index (CI¯)” value (Chou–Talalay, mean over the dose combinations of Figure 4b) was 0.11 and the “improvement (increase) in cytotoxicity relative to DOXO alone” value (¼ IC50 DOXO (0.12 µM) and ¼ IC50 GLIM (45.1 µM)) was 4.4 fold.
